Measurements: PubChem BioAssay AID1347074 (Center for Chemical Genomics, University of Michigan, 2019)
“And” between values parts separate entries of the source, which are not always exact repeats. Equal entries are not always repeated. This is a selection; strong and weak results do not stand in their true shares. The source made the active and inactive calls. No stated cut-off is given here; in the data, active means z-score above about 3 (passing the limit was not always enough); inactive means the rest.

By UniProt entry, the sequences of proteins in these tests, tags left out. Where a name states a change or a piece, a line headed by the entry shows the natural chain unless it says otherwise.
UniProt Q9UPY3: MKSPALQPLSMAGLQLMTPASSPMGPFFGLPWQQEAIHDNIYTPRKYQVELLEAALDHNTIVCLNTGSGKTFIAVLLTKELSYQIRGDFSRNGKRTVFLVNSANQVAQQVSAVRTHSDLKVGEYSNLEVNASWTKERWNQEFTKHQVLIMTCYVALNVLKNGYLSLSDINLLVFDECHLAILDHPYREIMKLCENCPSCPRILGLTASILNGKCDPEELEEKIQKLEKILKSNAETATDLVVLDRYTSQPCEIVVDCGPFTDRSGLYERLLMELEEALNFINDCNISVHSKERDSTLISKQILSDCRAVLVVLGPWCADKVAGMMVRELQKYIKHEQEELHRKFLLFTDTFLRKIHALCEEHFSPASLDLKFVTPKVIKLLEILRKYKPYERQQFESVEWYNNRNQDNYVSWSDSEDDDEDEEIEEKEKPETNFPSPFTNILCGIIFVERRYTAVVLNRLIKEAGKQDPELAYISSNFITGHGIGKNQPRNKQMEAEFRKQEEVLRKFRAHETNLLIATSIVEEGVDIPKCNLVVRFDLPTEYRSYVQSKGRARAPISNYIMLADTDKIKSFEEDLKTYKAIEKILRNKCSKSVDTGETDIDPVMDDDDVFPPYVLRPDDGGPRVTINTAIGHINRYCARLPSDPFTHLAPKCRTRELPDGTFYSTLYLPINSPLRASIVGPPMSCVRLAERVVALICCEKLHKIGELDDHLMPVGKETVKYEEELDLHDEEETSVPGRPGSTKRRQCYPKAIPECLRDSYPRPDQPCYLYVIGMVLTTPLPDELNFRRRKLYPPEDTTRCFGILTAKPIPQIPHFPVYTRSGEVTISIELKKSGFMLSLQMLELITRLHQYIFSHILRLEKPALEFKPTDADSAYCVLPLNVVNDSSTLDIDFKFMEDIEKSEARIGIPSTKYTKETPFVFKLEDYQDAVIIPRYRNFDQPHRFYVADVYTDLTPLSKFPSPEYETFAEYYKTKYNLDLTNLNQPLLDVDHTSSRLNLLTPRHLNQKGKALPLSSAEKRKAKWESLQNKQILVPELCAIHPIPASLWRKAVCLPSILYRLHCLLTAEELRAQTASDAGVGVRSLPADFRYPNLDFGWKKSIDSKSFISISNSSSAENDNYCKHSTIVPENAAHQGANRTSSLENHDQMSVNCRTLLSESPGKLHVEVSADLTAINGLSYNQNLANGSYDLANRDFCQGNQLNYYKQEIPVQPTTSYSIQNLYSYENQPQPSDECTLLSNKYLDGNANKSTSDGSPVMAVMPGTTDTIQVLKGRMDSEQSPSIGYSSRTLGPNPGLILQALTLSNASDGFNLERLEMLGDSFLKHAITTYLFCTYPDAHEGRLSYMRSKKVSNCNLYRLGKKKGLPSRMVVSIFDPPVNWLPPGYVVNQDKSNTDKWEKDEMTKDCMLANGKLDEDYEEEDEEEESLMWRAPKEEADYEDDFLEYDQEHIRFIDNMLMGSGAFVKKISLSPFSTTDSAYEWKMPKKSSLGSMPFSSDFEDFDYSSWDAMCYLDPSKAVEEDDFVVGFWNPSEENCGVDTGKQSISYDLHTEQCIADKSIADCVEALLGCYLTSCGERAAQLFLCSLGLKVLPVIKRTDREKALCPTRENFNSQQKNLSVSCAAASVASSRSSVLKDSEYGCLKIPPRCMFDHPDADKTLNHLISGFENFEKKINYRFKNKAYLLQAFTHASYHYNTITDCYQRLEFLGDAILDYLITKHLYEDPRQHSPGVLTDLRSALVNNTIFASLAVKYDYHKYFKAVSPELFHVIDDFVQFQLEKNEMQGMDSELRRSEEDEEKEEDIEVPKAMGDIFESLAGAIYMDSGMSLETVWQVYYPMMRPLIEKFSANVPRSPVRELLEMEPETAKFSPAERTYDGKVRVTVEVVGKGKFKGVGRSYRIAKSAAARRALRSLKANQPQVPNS

Target: Endoribonuclease Dicer (Homo sapiens) (UniProt Q9UPY3)
Experiment: Dicer cleavage of pre-miR-21 blockers – biochemical, cat-ELCCA, chemiluminescence, primary screen (AID 1347074);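 further: plate controls were vehicle for no effect and no enzyme for full effect; higher signal means more uncleaved substrate so more Dicer inhibition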
Conditions: cat-ELCCA pre-miR-21 Dicer processing, at 25 µM, stronger effect = higher value

SMILES | z-score
CN(C(=O)Cc1ccc(Cl)c(Cl)c1)[C@@H]1CCCC[C@@H]1N1CCCC1 | inactive: 0.69
O=C(OC1CN2CCC1CC2)c1ccccc1 (stereo not drawn) | inactive: -0.17
CN(C)C(=O)Oc1noc2ccccc12 | inactive: 0.33
O=C(CCc1ccccc1)OC1CN2CCC1CC2 (stereo not drawn) | inactive: 2.51
CN(C(=O)Cc1ccc(Cl)c(Cl)c1)[C@H]1CCCC[C@@H]1N1CCCC1 | inactive: -2.91 and inactive: 0.07
O=C(COc1ccc(F)cc1)OC1CN2CCC1CC2 (stereo not drawn) | inactive: -0.63
O=C(OC1CN2CCC1CC2)c1cccc([N+](=O)[O-])c1 (stereo not drawn) | inactive: 1.76
O=C(COc1ccccc1)OC1CN2CCC1CC2 (stereo not drawn) | inactive: 0.37
BrC1CSc2nc3ccccc3n2C1c1ccccc1 (stereo not drawn) | inactive: -1.07
NC(=O)Nc1ccc([As](=O)(O)O)cc1 | inactive: 0.28
CN(C(=O)Cc1ccccc1)[C@@H]1CC[C@]2(CCCO2)C[C@H]1N1CCCC1 | inactive: -1.02
CN(C(=O)Cc1ccc(Cl)c(Cl)c1)[C@@H]1CC[C@]2(CCCO2)C[C@H]1N1CCCC1 | inactive: -0.48
O=C(OC1CN2CCC1CC2)c1ccc(Cl)cc1 (stereo not drawn) | inactive: 0.39
